## Antibody variant affinities, Ab-14 heavy chain, assay 1

All variants were tested on one target, the spike HR2 peptide PDVDLGDISGINAS (SARS-CoV-2).

Parent scFv Ab-14: VH joined to VL by a (GGGGS)3 linker. Changes lie in the heavy chain CDRs alone.
VH: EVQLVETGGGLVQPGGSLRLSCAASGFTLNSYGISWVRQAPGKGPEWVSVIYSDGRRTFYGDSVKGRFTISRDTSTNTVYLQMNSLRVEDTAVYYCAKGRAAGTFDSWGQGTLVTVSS
VL: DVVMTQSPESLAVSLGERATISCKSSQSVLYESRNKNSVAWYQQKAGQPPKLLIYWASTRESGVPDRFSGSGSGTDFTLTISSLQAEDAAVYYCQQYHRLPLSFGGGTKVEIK

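The parent was found by panning a naive human phage display library on the peptide. Variants in AAYL49 differ from the parent at up to three CDR positions; double and triple changes were sampled at random. AlphaSeq pools MATa yeast showing the antibodies with MATalpha yeast showing the peptide. The frequency of each diploid, read from paired DNA barcodes, reflects how well the two displayed proteins bind. Read counts were normalised to the haploid input and turned into Kd by a linear fit to BCL2-family pairs of known affinity, for each replicate. Mating was done three times.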

The parent's heavy chain CDRs are GFTLNSYGIS, VIYSDGRRTFYGDSVK, GRAAGTFDS; each variant's own CDRs replace them letter for letter.
The read-out is the apparent dissociation constant on a log10 scale (nM): the lower, the stronger.
An entry "ND" has no value in the source: the pair was not observed among the diploids in that replicate. This suggests poor binding but is not conclusive.

CDR-H1	CDR-H2	CDR-H3	log10 Kd (nM) by replicate	control signals
GFTLNLYGIS	VIYSDGRRTFYGDSEK	GRAAGTFDD	ND ND ND	0/9
GFWLNSEGIS	VIYSDGRRTFYGDSVK	GRGAGTFDS	ND ND ND	1/9 (5.48)
GFTLNSYGIC	VIYSDGRRLFYGDSVK	GRAAGTFDW	ND ND ND	0/9
GFCLNSYGIS	VIYSDGRRTFYGDSVK	GMAAGTIDS	1.50 1.59 1.71	3/9 (4.27)
LFTLNSYGIS	VIYSTGRRTFYPDSVK	GRAAGTFDS	ND ND ND	0/9
GFTLNIYGRS	VIYSDGRRTFYGDSVK	GRAGGTFDS	ND ND 4.59	0/9
GFTYNSYGIS	VIYSDGRRTFYGESVK	KRAAGTFDS	ND ND ND	0/9
GFTLNSYGNF	VLYSDGRRTFYGDSVK	GRAAGTFDS	ND ND ND	0/9
GFTLNSYVIS	WIYSDGRRTFYGDSVH	GRAAGTFDS	3.52 ND ND	1/9 (3.30)
GFTLNYYGIS	WIYSDGRRTFYGDSVK	GRAAGTFES	ND ND ND	2/9 (4.15)
GFTLNSYGIS	VIYYDGRRTNYGDSVK	GRAAGTADS	ND ND ND	0/9
GFTLNSYHIS	VFYSQGRRTFYGDSVK	GRAAGTFDS	ND ND ND	0/9
GFTKNSYGIS	VIVSDGRRTFYGDSVK	GRAAGTSDS	4.55 3.88 ND	1/9 (4.01)
GFTLNSYGIS	VHYSDGRRTFYGDSVK	GHAAMTFDS	ND ND ND	0/9
GFTLNSYGIS	VIYSDFRRTAYGDSVK	TRAAGTFDS	4.96 3.61 5.51	6/9 (4.09)
GFNLNSYGIS	VIYSDGRRTFYGDSVK	GRAAGTFDS	0.46 0.66 0.58	1/9 (4.86)
GFTLNSYLIS	VIYSDGRRTFYGDSVK	GRAAPTFDS	ND ND ND	1/9 (4.45)
KFTLNSYGIS	VGYSDGRRTFYGDSVK	GRAAGTLDS	4.45 3.44 ND	3/9 (4.29)
GPTLNSRGIS	VIYSDGRRTFYGDSVK	GRAAGTFDQ	5.34 ND ND	3/9 (4.47)
GFTTNSYGIS	VIYSDGRRTFYGDSTK	GRAAGTCDS	ND ND ND	0/9
GFQLNSYQIS	VIYSDGFRTFYGDSVK	GRAAGTFDS	1.35 1.41 1.79	1/9 (3.42)
GFTLNEYGIS	VIYSDGRRTQYGDSVK	GRAAGTFVS	-0.11 0.18 0.06	2/9 (4.71)
GFTLNSYGIS	VIYSDGRRTFYGESVK	GMAAGTFDF	2.10 2.37 1.77	0/9
VFTLNSYGIS	VIQSDGRRTFYEDSVK	GRAAGTFDS	ND ND ND	0/9
GFTLNSYGIS	VIYSDGRRTFYQDSVK	GTAAGTFDS	0.12 0.43 0.28	0/9
GFTLNSQLIS	VIYSDGRRTFYGDSVK	GRAAGTFDS	ND ND ND	1/9 (3.50)
GFTLNSYGIS	VIYSDGRRPFAGDSTK	GRAAGTFDS	ND 3.42 ND	0/9
GFTLNSYGIS	EIYSDGRRTFCGSSVK	GRAAGTFDS	ND ND ND	0/9
CFTLVSYGIS	VIYSDGRRTFYGDSVK	GRAAGTFDI	4.69 4.42 ND	2/9 (3.68)
GFTQNSYGIK	VIYSDGRRTFYGDSVK	GRAAGTFSS	ND 4.21 ND	3/9 (4.46)

Parent in this assay: reference entry 0.65, copy in this library 4.11 (one replicate of three).
Background: pairings of library AAYL49 with three empty control strains gave a value in 15% of cases (median 4.06, 5th percentile 2.83). Values in that range, when seen in few replicates, are hard to tell from nonspecific mating. Also given: how often the same scFv was detected with the empty control strains, with their mean in brackets.

Data: MIT Lincoln Laboratory AlphaSeq set, Engelhart et al. 2022, doi:10.1038/s41597-022-01779-4, as distributed in FLAb.